# Only a part is listed here, and it is no random draw. Calls of active or inactive are those of the source. No stated cut-off is given here; in the data, active means inhibition above about 50%; inactive means the rest.
# By UniProt entry, the sequences of proteins in these tests, tags left out.
# UniProt P51452, whole entry: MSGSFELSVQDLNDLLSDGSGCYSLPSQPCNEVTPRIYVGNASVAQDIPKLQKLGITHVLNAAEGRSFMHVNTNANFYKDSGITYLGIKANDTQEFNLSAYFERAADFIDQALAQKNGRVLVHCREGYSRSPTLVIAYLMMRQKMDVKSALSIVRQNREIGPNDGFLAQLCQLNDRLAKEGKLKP
# Target: Dual specificity protein phosphatase 3 (Homo sapiens) (UniProt P51452)
# Assay: VHR1 phosphatase inhibitors, primary screen, biochemical, absorbance, uHTS (AID 1654)
# Settings: recombinant VHR phosphatase, pNPP absorbance; at 13.3 µM; hits give high values
row,Compound,inhibition
1,CC1=NCCc2c1[nH]c1ccccc21.O=[N+]([O-])c1cc([N+](=O)[O-])c(O)c([N+](=O)[O-])c1,inactive: -3.8%
2,O=C(O)c1cccc(Nc2c([N+](=O)[O-])cc([N+](=O)[O-])cc2[N+](=O)[O-])c1,inactive: 18.8%
3,COc1ccccc1OP(C)(=O)Nc1ccc(C)cc1 (centres undefined),inactive: 22.2%
4,Cc1ccc(NP(C)(=O)Oc2ccccc2)c(C)c1 (centres undefined),inactive: -8.3%
5,CCOC(=O)c1ccc(NP(C)(=O)Oc2ccccc2)cc1 (centres undefined),inactive: 4.4%
6,Cc1cc(C)cc(OP(C)(N)=O)c1 (centres undefined),inactive: -12.3%
7,COc1ccccc1OP(C)(=O)Nc1cc(Cl)ccc1C (centres undefined),inactive: 10.3%
8,COc1ccc(OP(C)(=O)Nc2cccc(F)c2)cc1 (centres undefined),inactive: 16.6%
9,O=[N+]([O-])c1ccc2c(c1)C=Nc1ccccc1O2,inactive: 15.5%
10,CC(C)(C)c1ccc(OP(C)(=O)Nc2ccc(SC(F)(F)F)cc2)cc1 (centres undefined),inactive: 7.8%
11,Cc1cccc(C)c1OP(C)(N)=O (centres undefined),inactive: 13.1%
12,CCN(CC)CCCOC(=O)C(O)(c1ccccc1)c1ccccc1,inactive: 8.3%
13,CCOC(=O)c1ccc(NP(C)(=O)Oc2ccc(OC)cc2)cc1 (centres undefined),active: 50.8%
14,CCOP(C)(=S)SCC(=O)NC(C)C(=O)O (centres undefined),inactive: -6.2%
15,CP(=O)(Nc1ccccn1)Oc1ccc(Cl)cc1 (centres undefined),inactive: 0.1%
16,CP(=O)(Nc1ccc(SC(F)(F)F)cc1)Oc1ccc(Cl)cc1 (centres undefined),inactive: -15.7%
17,Cc1cccc(C)c1OP(C)(=O)Nc1ccc(SC(F)(F)F)cc1 (centres undefined),inactive: 4.7%
18,CP(=O)(Oc1ccccc1)OC(c1ccccc1)C(F)(F)F (centres undefined),inactive: 20.2%
19,CP(=O)(NC(=O)Nc1ccccc1)Oc1ccccc1 (centres undefined),inactive: 17.4%
20,CCc1ccc(OP(C)(=O)N2CCN(c3ccc([N+](=O)[O-])cc3)CC2)cc1 (centres undefined),inactive: -1.3%
21,Cc1cc(C)cc(OP(C)(=O)Nc2ccc(SC(F)(F)F)cc2)c1 (centres undefined),inactive: -14.1%
22,CP(=S)(Nn1cnnc1)Oc1ccccc1 (centres undefined),inactive: 1.8%
23,CP(=O)(Nc1ccccc1Br)Oc1ccccc1 (centres undefined),inactive: 4.4%
24,COc1ccccc1OP(C)(=O)Nc1ccccc1 (centres undefined),inactive: 12.4%

# Reference: PubChem BioAssay AID1654 (Sanford-Burnham Center for Chemical Genomics, 2009)
